PubChem BioAssay AID641 (Vanderbilt High Throughput Screening Facility, 2007)
The entries are a selection whose mix differs from that of the whole data set. Active and inactive are the calls of the source.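 The calls were made as follows: active = luminescence count or its row- and column-corrected plate score outside the 99.7% band of the plate's sample wells, on either side; inactive = the rest.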

Amino acid sequences for entries named in this document (tags omitted).
UniProt P21728, whole entry: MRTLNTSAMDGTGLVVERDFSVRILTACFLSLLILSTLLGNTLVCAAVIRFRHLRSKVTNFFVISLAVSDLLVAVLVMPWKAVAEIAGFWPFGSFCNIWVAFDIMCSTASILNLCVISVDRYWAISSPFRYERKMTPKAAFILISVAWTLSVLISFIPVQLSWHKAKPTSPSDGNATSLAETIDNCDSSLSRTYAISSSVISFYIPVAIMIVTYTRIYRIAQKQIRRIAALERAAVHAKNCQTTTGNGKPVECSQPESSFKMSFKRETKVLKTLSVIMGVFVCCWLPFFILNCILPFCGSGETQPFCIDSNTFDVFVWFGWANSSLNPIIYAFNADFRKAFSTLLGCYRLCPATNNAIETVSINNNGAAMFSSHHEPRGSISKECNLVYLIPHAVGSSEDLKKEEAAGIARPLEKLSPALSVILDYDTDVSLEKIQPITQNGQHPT

What follows are compounds tested against D(1A) dopamine receptor (Homo sapiens) (UniProt P21728) (assay: D1 CRE-luciferase signal change, two-sided – cell-based, HEK293 D1, dopamine EC30, D1 allosteric modulator project, primary screen (AID 641)). Conditions: dopamine EC30 potentiation, at 10 µM, actives deviate in either direction.

**Q.** For `CP(=O)(Nc1ccccc1F)Oc1ccccc1` (stereo unspecified), which B-score is on record?
**A.** inactive: -0.137

**Q.** `CP(=O)(Nc1ccc2c(c1)OCCO2)Oc1ccccc1` (stereo unspecified) was tested. Which B-score did it give?
**A.** inactive: -1.67

**Q.** Which B-score does the source give for `Cc1ccccc1NP(C)(=O)Nc1ccccc1C` here?
**A.** inactive: -0.932

**Q.** Which B-score does the source give for `CCOP(C)(=S)SCC(=O)NC(C)(CC)C(=O)O` (stereo unspecified) here?
**A.** inactive: 0.0593

**Q.** How did the B-score turn out when `CN(C)CCOC(=O)C(O)(c1ccccc1)C1CCCCC1` (stereo unspecified) was run?
**A.** inactive: -0.236

**Q.** `CP(=O)(Oc1ccccc1)N1CCOC1=O` (stereo unspecified) was tested. Which B-score did it give?
**A.** inactive: -0.412

**Q.** How did the B-score turn out when `CP(=O)(Nc1ccccn1)Oc1ccccc1` (stereo unspecified) was run?
**A.** inactive: -0.0686

**Q.** Which B-score does the source give for `Cc1nc2ccc3ccccc3c2o1.O=[N+]([O-])c1cc([N+](=O)[O-])c(O)c([N+](=O)[O-])c1` here?
**A.** inactive: -0.325

**Q.** How did the B-score turn out when `COc1ccccc1OP(C)(=O)Nc1ccc(C)c(C)c1` (stereo unspecified) was run?
**A.** inactive: -0.25

**Q.** How did the B-score turn out when `COc1ccccc1OP(C)(=O)Nc1ccc(C)cc1` (stereo unspecified) was run?
**A.** active: -3.21

**Q.** Which B-score does the source give for `Cc1ccc(NP(C)(=O)Oc2ccccc2)c(C)c1` (stereo unspecified) here?
**A.** inactive: -1.59

**Q.** With `CCOP(C)(=S)SCC(=O)NC(C)C(=O)O` (stereo unspecified) as the compound, how does the B-score read?
**A.** inactive: 0.881

**Q.** For `CP(=O)(NC(=O)Nc1ccccc1)Oc1ccccc1` (stereo unspecified), which B-score is on record?
**A.** inactive: -0.451

**Q.** How did the B-score turn out when `CP(=S)(Nn1cnnc1)Oc1ccccc1` (stereo unspecified) was run?
**A.** inactive: -0.0113

**Q.** For `Cc1nc2ccc3ccccc3c2s1.O=[N+]([O-])c1cc([N+](=O)[O-])c(O)c([N+](=O)[O-])c1`, which B-score is on record?
**A.** active: 5.03

**Q.** With `Cc1ccc(C)c(NP(C)(=O)Oc2ccccc2)c1` (stereo unspecified) as the compound, how does the B-score read?
**A.** inactive: 0.00409
